The values that follow are results of earlier work, collected in patent US20120058950A1, “DETECTION OF NEUROPEPTIDES ASSOCIATED WITH PELVIC PAIN DISORDERS AND USES THEREOF” (University of Vermont and State Agricultural College, priority 2003, published 2012).

Read-outs that look alike come from different tables or passages of the source.

Series [1] has as its system isolated human detrusor smooth muscle.
The test system of series [2] is micturition contractions. The following applies: 10 nmol/kg intravenously, urethane-anesthetized hamster.
Series [3] concerns micturition contractions. The following applies: 10 nmol/kg intravenously, rat.

For the substance Calcitonin Gene-Related Peptide [CGRP], the “effect on isometric tension” value in series [1] was “little effect”. Moreover, in the series on micturition contractions [2], the “mean amplitude of micturition contractions MAC” value is recorded as “decreased” and the “pressure threshold for micturition” value is “decreased”. For the same substance, in the series with micturition contractions [3], the “mean amplitude of micturition contractions MAC” value is on record as “not in the rat at this dose” and the “pressure threshold for micturition” value is reported as “not in the rat at this dose”.
